Biological target: T1, aromatase (Rattus norvegicus, UniProt P22443)
T1 sequence (P22443 1-508): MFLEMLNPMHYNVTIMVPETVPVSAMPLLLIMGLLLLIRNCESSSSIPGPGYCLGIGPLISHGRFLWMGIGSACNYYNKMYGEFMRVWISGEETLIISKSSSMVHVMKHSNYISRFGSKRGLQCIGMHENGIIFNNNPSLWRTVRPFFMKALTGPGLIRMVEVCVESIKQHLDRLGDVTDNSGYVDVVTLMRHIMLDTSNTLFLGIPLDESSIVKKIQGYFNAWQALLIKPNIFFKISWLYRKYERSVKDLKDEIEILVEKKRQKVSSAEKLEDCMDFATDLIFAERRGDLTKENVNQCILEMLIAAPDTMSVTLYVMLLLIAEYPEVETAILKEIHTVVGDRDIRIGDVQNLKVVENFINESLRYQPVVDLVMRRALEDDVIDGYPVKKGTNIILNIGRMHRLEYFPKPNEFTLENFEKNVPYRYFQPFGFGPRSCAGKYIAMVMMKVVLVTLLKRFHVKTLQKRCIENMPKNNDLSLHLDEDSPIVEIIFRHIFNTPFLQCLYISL
Experiment: biochemical
Conditions: rat ovarian microsomes; substrate (androstenedione) concentration 0.1 μM

For `Clc1ccc2c(c1)C(n1ccnc1)CC2` (stereo not shown) [1-(6-chloro-2,3-dihydro-1H-inden-1-yl)-1H-imidazole nitrate], the EC50 was 210 nM.

— patent US4659730A, “Aromatase inhibiting imidazole derivatives” (Eli Lilly and Company, priority 1984, dated 1987)
